Kd data for 1 molecule are collected here from publication PMC7046293, “Parallel quorum-sensing system in Vibrio cholerae prevents signal interference inside the host” (PLoS Pathogens, 2020).

Structures are written as SMILES.

In this assay the target is CqsR-LBD (Vibrio cholerae, UniProt Q9KR16). Nature of the assay: biochemical. Further details: gene VC_1831.

As a reminder, the Kd is the free concentration of one partner at which half of the binding sites on the other are occupied at equilibrium, for simple one-to-one binding. `NCCO` [ethanolamine] yielded a Kd of 478 ± 76 nM.
